Data set [1] relates to breast cancer cell MDA-MB-231. Put plainly: MTT assay, proliferation of breast cancer cell MDA-MB-231. The class given is cell-based. To be noted: dose 5 μg/mL. As for the experimental part: The MTT assay was used to detect the inhibitory effect of the integrin blocker fusion protein obtained in Example 1 on the proliferation of various tumor cells, including melanoma cell B16F10, gastric cancer cell MGC-803, lung cancer cell A549, liver cancer cell Hep-G2, breast cancer cell MDA-MB-231, colon cancer cell HCT-116, human glioma U87, and cervical cancer cell Hela.
The tumor cells were cultured in a 5% CO2 incubator at 37° C. to a density of 90% or more, and collected by trypsinization. The cells were resuspended in the culture liquid and counted under a microscope. The cell concentration was adjusted to 3.0×10^4 cells/mL. The cell suspension was inoculated into a 96-well plate at 100 μL per well and cultured overnight in a 5% CO2 incubator at 37° C. The fusion proteins I, II, III, IV, V, and the positive drug Taxol were diluted with the culture liquid to respective predetermined concentrations. After the cells were fully adhered, each dilution was added to a 96-well plate at 100 μL per well, respectively. […] The absorbance was measured at 570 nm with a microplate reader with a reference wavelength of 630 nm, and the proliferation inhibition (PI) was calculated. […]
The test was repeated 5 times independently. The results obtained from the test were calculated as mean±SD, and statistical t-test was performed. […]
On the technique in general: Tetrazolium dyes change colour on reduction, which living cells bring about.

The conditions of data set [2]: cited from earlier work.

On to `CC(=O)O[C@H]1C(=O)[C@@]2(C)[C@H]([C@H](OC(=O)c3ccccc3)[C@]3(O)C[C@H](OC(=O)[C@H](O)[C@@H](NC(=O)c4ccccc4)c4ccccc4)C(C)=C1C3(C)C)[C@]1(OC(C)=O)CO[C@@H]1C[C@@H]2O` [Taxol, reference compound], for which, in data set [1], the “PI (%)” value is given as 59.99%. For “recombinant IL-2: common recombinant IL-2 of the related art”, in data set [2], the half-life in vivo is recorded as 6.9 min.

These data come from patent US11407811B2, “Fusion protein, preparation method therefor and use thereof” (JIANGSU RONGTAI BIOTECH CO., LTD., priority 2017, dated 2022).
